Earlier results in patent US20070286875A1 (Morton Grove Pharmaceuticals, Inc., priority 2006, published 2007).

SMILES: Clc1ccc2c(c1)CCc1cccnc1C2=C1CCNCC1
- effect of food on Tmax (food prior to loratadine rapidly-disintegrating tablets): may be delayed
- bioavailability administered without water (without water): not different
